The text below walks through data of patent publication US20240409659A1.

One assay addresses Human FcγRI (human) (UniProt P12314). Kind of assay: Octet BLI, receptor on HIS1K sensor. (BLI is a label-free optical method that tracks binding on a fibre tip over time.)
The target of the next assay is Human FcγRIIA (human) (UniProt P12318). Nature of the assay: Octet BLI, receptor on HIS1K sensor.
The target in another assay is Human FcγRIIB (human) (UniProt P31994). Kind of assay: Octet BLI, receptor on HIS1K sensor.
A further assay addresses Human FcγRIIIB (human) (UniProt O75015). Kind of assay: Octet BLI, receptor on HIS1K sensor.
The target of the next assay is Human FcRn (human) (UniProt P55899). Nature of the assay: Octet BLI, FcRn on HIS1K sensor, pH 6.0.

For the substance control IgG (7101+7103) (antibody), the Response with Human FcγRI (human) came to 0.54 nm; with Human FcγRIIA (human), 0.483 nm; with Human FcγRIIB (human), 0.171 nm; with Human FcγRIIIB (human), 0.0847 nm; with Human FcRn (human), 0.226 nm.
